Laboratory results reported in patent US20070167349A1, “Estrogen cancer therapy” (Cell Therapeutics, Inc., priority 2005, published 2007).
Read-outs that look alike come from different tables or passages of the source.

Tested on: HT-29 CRC xenograft tumor
Conditions: Paclitaxel iv 90 mg/kg, pool of 3 tumors

SMILES: CC(=O)O[C@H]1C(=O)[C@@]2(C)[C@H]([C@H](OC(=O)c3ccccc3)[C@]3(O)C[C@H](OC(=O)[C@H](O)[C@@H](NC(=O)c4ccccc4)c4ccccc4)C(C)=C1C3(C)C)[C@]1(OC(C)=O)CO[C@@H]1C[C@@H]2O [Paclitaxel, paclitaxel]
- PTX in tumor (+(E2), 24 h): 6810
- PTX in tumor (+(E2), 168 h): 421
- PTX in tumor (−(P), 24 h): 7310
